The inhibition is the share of the control response that was lost under treatment.

Only a part is listed here, and it is no random draw. The source made the active and inactive calls.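 How the source made its calls: active means inhibition of 50% or more; inactive means inhibition below 50%.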

Experimental findings from PubChem BioAssay AID2825 (Sanford-Burnham Center for Chemical Genomics, 2010) are described below.

The assay is described as follows: blockers of yeast NLRP3/ASC/caspase-1 reporter – luminescence, uHTS, primary screen (AID 2825).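 Further: plate controls were induced DMSO wells for no effect and uninduced yeast grown without galactose for full effect.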 The following applies: Yeast reconstituted NLRP3/ASC/caspase-1, beta-gal luminescence, 24 h; at 10 µM; stronger effect = higher value.
For the molecule `CCC(=O)N(c1ccccc1)C1(COC)CCN(CCc2cccs2)CC1`, the inhibition was inactive: 9.29%. For `CCC(=O)N(c1ccccc1)C1(COC)CCN(CCn2nnn(CC)c2=O)CC1`, the inhibition was inactive: 5.62%.
